Experimental findings from US20050227956A1, “Control of mold growth on wood” (priority 2004, published 2005) are described below.

Where only a bound is given, the exact number is not on record here.

The test system of this experiment is Trichoderma virens. Description: Six-well plate screening test. Format: cell-based. Particulars: 10 days of incubation at room temperature.

Consider `O=C1C2CC=CCC2C(=O)N1SC(Cl)(Cl)C(Cl)Cl` (stereo not shown), for which the “Minimum Inhibitory Concentrations (MIC)” value was over 100 mg/kg.
